# Laboratory results published in US11912668B2, “GCN2 and perk kinase inhibitors and methods of use thereof” (Deciphera Pharmaceuticals, LLC, priority 2020, dated 2024).
# Protein sequences, listed by entry. Tags and fused reporters are not part of them. Chains listed by the source or under a name are the forms on record and can include a tag or linker. Residues count along the entry.
# UniProt Q9P2K8, whole entry: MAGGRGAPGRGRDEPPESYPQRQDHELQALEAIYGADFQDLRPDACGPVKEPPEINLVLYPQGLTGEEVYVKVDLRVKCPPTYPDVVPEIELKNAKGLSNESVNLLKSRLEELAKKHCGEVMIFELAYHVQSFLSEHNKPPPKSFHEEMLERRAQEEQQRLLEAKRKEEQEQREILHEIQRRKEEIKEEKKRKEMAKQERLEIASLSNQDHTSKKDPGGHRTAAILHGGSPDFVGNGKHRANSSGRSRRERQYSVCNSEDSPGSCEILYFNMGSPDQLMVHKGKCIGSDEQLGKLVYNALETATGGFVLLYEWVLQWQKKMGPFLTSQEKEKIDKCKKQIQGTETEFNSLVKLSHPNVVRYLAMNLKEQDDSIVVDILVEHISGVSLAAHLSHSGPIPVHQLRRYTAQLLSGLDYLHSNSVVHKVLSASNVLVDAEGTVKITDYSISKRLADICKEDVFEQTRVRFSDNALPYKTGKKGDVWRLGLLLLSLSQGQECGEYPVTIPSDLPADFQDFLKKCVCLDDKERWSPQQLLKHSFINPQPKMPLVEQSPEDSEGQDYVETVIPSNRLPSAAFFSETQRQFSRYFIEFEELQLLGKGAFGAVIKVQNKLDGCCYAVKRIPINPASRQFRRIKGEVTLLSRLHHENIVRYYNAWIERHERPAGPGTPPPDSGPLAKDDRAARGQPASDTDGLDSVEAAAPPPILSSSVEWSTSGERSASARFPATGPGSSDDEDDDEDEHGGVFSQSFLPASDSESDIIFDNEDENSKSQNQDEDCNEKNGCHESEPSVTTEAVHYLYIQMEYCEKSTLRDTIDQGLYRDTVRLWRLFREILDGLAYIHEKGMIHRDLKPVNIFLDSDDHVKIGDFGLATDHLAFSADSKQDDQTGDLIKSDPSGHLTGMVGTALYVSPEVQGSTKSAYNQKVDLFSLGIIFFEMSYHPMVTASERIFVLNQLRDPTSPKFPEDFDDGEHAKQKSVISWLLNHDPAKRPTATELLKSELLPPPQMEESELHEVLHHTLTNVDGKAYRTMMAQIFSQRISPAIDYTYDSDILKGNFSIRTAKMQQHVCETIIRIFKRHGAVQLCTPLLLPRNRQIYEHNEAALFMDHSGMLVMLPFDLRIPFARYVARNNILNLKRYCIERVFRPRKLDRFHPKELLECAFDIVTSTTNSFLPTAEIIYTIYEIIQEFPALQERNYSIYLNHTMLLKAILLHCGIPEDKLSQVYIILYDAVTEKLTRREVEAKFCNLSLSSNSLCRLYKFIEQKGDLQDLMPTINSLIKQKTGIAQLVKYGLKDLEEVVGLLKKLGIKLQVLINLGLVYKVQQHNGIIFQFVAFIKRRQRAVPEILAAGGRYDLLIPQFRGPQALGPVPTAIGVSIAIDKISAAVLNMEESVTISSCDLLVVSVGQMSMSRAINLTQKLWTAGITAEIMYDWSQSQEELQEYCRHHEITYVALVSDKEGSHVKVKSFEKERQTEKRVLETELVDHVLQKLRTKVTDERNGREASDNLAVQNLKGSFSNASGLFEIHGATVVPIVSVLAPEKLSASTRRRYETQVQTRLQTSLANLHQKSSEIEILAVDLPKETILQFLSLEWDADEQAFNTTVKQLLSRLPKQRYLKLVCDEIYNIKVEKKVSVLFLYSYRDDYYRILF
# UniProt Q9NZJ5, 564-1116 with tags or gaps limits assumed: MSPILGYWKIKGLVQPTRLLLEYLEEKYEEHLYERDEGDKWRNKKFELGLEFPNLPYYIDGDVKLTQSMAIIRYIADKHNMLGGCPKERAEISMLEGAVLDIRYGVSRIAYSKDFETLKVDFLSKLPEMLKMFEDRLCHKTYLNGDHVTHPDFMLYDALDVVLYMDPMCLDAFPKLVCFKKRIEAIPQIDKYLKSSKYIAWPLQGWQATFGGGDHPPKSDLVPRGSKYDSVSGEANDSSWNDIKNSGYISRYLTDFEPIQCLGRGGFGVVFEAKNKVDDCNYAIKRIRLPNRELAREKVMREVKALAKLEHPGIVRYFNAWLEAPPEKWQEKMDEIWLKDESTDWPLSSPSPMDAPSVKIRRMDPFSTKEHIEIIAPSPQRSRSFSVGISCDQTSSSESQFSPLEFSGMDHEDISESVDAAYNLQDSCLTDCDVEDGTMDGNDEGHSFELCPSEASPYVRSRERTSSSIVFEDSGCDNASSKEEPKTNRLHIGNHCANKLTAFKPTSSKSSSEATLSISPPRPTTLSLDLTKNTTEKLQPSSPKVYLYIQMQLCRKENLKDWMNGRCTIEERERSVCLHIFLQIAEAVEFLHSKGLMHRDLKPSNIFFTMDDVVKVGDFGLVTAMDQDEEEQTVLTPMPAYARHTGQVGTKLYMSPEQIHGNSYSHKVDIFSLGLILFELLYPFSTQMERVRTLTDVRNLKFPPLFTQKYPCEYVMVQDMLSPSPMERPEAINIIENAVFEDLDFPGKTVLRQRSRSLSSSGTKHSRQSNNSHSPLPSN
# Legend:
# GCN2 kinase = GCN2 kinase (Homo sapiens (Human), UniProt Q9P2K8); assay: Biochemical assay for GCN2 (TR-FRET kinase activity assay); conditions: read-out: GCN2 IC50; 1 mM ATP, 3-hour incubation
# Experimental: Activity of GCN2 kinase was determined using a TR-FRET kinase activity assay (e.g. Riddle et al. Analytical Biochemistry (2006) 356(1) 108-116). Assays were conducted in 384-well plates (13 μL assay volume) using 2 nM GCN2 (Carna Biosciences), 130 nM GFP-EIf2α (Invitrogen), 0.2 mg/mL E. coli tRNA (sigma) and 1 mM ATP in kinase buffer (Invitrogen). Inhibition of GCN2 was measured by adding serial diluted test compound (final assay concentration of 0.5% DMSO) followed by a 3-hour incubation. Tb-peIF2α (pSer52) antibody (Invitrogen) (2 nM final assay concentration) in kinase buffer containing ETDA (final assay concentration of 20 mM) was added. After a 60 min incubation at room temperature, TR-FRET was monitored using an excitation wavelength of 340 nm and emission wavelengths of 490 nm and 520 nm. The emission ratio (520/490) at each compound concentration of was converted to percent inhibition using controls (i.e. reaction with no test compound and reaction with a known inhibitor) and IC50 values were calculated by fitting a four-parameter sigmoidal curve to the data using Prism (GraphPad software).
# PERK kinase = PERK kinase (Homo sapiens (Human), UniProt Q9NZJ5); assay: Biochemical assay for PERK (coupled pyruvate kinase/lactate dehydrogenase assay); conditions: read-out: PERK IC50; 1 mM ATP, rate from 2-3 h time frame
# Experimental: Activity of PERK kinase was determined spectroscopically using a coupled pyruvate kinase/lactate dehydrogenase assay that continuously monitors the ATP hydrolysis-dependent oxidation of NADH (e.g., Schindler et al. Science (2000) 289: 1938-1942). Assays were conducted in 384-well plates (100 μL final volume) using 10 nM PERK (from Beryllium), 0.25 mg/mL Myelin Basic Protein substrate, 1.5 units pyruvate kinase, 2.1 units lactate dehydrogenase, 1 mM phosphoenol pyruvate, 0.28 mM NADH and 1 mM ATP in assay buffer (100 mM Tris, pH 7.5, 15 mM MgCl2, 0.5 mM DTT, 0.004% (w/v) BSA, and 0.004% Triton X-100). Inhibition of PERK was measured by adding serial diluted test compound (final assay concentration of 1% DMSO). A decrease in absorption at 340 nm was monitored continuously for 6 hours at 30° C. on a multi-mode microplate reader (BioTek). The reaction rate was calculated using the 2-3 h time frame. The reaction rate at each concentration of compound was converted to percent inhibition using controls (i.e. reaction with no test compound and reaction with a known inhibitor) and IC50 values were calculated using software routines in Prism (GraphPad software).
# CCRF-CEM leukemia cells = assay: CCRF-CEM ASNase cell proliferation assay, phenotypic assay for cellular inhibition of GCN2; conditions: read-out: CCRF-CEM ASNase Cell Proliferation; ASNase treated CCRF-CEM cells, 1 mU/mL ASNase, 72 h
# Experimental: CCRF-CEM leukemia cells (catalog #CCL-116) were obtained from the American Type Culture Collect (ATTC, Manassas, VA). Cells were grown in RPMI-1640 medium supplemented with 10% heat-inactivated fetal bovine serum (Invitrogen, Carlsbad, CA) and 1% Penicillin/Streptomycin/L-Glutamine at 37° C., 5% CO2, and 95% humidity. Cells were expanded until reaching one million cells per mL at which time they are subcultured or harvested for assay use. Ten thousand cells per well in 200 μL RPMI-1640 supplemented with 10% heat-inactivated fetal bovine serum and 1% Penicillin/Streptomycin were dispensed into a 96-well black clear bottom plate. A serial dilution of test compound and 1 mU/mL ASNase was added in triplicate and plates were incubated for 72 h at 37° C., 5% CO2, and 95% humidity. At the end of the incubation, 40 μL of a […] solution of resazurin (Sigma, St. Louis, MO) in PBS was added to each well of the plate and plates were incubated for an additional 6 h at 37° C., 5% CO2, and 95% humidity. Plates were read on a Synergy2 or equivalent reader (Biotek, Winooski VT) using an excitation of 540 nm and an emission of 600 nm. Data was analyzed using GraphPad Prism software (GraphPad, San Diego, CA) to calculate IC50 values.
# [1] = tested on: ATF4 in CCRF-CEM leukemia cells (PERK); assay: CCRF-CEM TG ATF4 ELISA, phenotypic assay for cellular inhibition of PERK preactivated by thapsigargin; conditions: read-out: CCRF-CEM Thapsigargin ATF4 ELISA; Thapsigargin (1 μM) stimulated CCRF-CEM cells
# Experimental: CCRF-CEM leukemia cells (catalog #CCL-116) were obtained from the American Type Culture Collection (ATTC, Manassas, VA). Briefly, cells were grown in RPMI-1640 medium supplemented with 10% heat-inactivated fetal bovine serum (Invitrogen, Carlsbad, CA) and 1% Penicillin/Streptomycin/L-Glutamine at 37° C., 5% CO2, and 95% humidity. Cells were expanded until reaching one million cells per mL at which time they were subcultured or harvested for assay use. One million five hundred thousand cells per well in 1 mL complete growth medium were dispensed into 12-well plates and incubated overnight. A serial dilution of test compound was added and cells were incubated at 37° C., 5% CO2, and 95% for three hours, then 1 μM thapsigargin was added and cells were incubated for an additional hour at 37° C., 5% CO2, and 95%. Cells were lysed then ATF4 levels were measured using an ELISA assay (Proteintech, Rosemont, IL). Absorbance was measured at 450 nm and 544 nM using a Synergy2 or equivalent reader (Biotek, Winooski VT). Data was analyzed using PRISM software (Graphpad, San Diego, CA) to calculate IC50 values.
smiles,measurement,setting,value
CC(=O)Nc1cc2nc(C)c(-c3cccc(NS(=O)(=O)c4cc(Cl)cc(CO)c4Cl)c3F)cc2cn1,IC50,GCN2 kinase,< 100 nM
same,IC50,PERK kinase,< 100 nM
same,IC50,CCRF-CEM leukemia cells,< 100 nM
same,IC50,[1],100 to 500 nM
